The record followed here is paper PMC2866134 (Bioorganic & medicinal chemistry letters, 2010).

The test system of the series is A431 cancer cells. Nature of the series: A431 cytotoxicity. The class given is cell-based.

cisplatin [Compound 11] returned an IC50 of 7.65 ± 1.4 µM.

What is called IC50 is the concentration at which inhibition is half-maximal.
